The text below walks through data of article PMC9724349, “Discovery of a pyrano[2,3-b]pyridine derivative YX-2102 as a cannabinoid receptor 2 agonist for alleviating lung fibrosis” (Journal of Translational Medicine, 2022).

This assay deals with cannabinoid receptor 2 (CB2R) (Homo sapiens, UniProt P34972). Kind of assay: radioligand binding assay, [3H]CP […] displacement.

In general, Ki refers to the dissociation constant of the complex between target and ligand, obtained from inhibition or displacement. A low value points to a stronger hold on the target. For the molecule `Cc1ccc(N2C(=O)[C@H]3[C@@H](CC(=O)c4ccccc4)Cc4oc5ccccc5c4[C@H]3C2=O)cc1`, the Ki turned out to be 3.6 µM.
